# Antibody variant affinities, Ab-14 light chain, assay 1

All variants were tested on one target, the spike HR2 peptide PDVDLGDISGINAS (SARS-CoV-2).

Each scFv is VH, three GGGGS repeats, VL, as in the parent Ab-14, and differs from it in the CDRs of the light chain only.
VH: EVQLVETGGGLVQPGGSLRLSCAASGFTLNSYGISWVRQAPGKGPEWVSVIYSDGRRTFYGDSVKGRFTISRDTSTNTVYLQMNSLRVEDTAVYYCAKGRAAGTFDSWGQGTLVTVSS
VL: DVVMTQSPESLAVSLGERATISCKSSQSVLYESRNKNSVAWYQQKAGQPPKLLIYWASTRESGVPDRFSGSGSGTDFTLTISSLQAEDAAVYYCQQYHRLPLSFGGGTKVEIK

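Phage display of a naive human antibody library on the peptide gave the parent. Variants in AAYL50 differ from the parent at up to three CDR positions; double and triple changes were sampled at random. Affinity was read by AlphaSeq, a pooled yeast mating assay with surface-displayed partners. After mating in shaken culture at 30 °C for 16 h, diploids were selected and their barcode pairs sequenced. The ratio of observed to expected reads was calibrated, replicate by replicate, on BCL2-family standards whose Kd was known from biolayer interferometry. There are three technical replicates.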

Positions count from residue 1 of the parent VL; V39I puts I in place of V. All variants listed here change V39 of the VL, counted from its first residue. Affinities are written as log10 Kd with Kd in nM; a lower number is a better binder. The mean shown is taken over the replicates in which the pair was detected. Where no diploid with the target was found in that replicate, the entry reads "nd": below detection, most likely a poor binder, though not proof of it. Order: sorted from the lowest average up, undetected variants last. For reference, the parent read 0.65 as the reference entry and 1.68 as a member of this library. Nonspecific signal, from three strains lacking the peptide, appeared in 18% of pairings of library AAYL50, centred on 4.19 (5% of these signals below 2.99); values are not corrected for it.

| changes | replicates, log10 nM | log10 Kd (nM), mean |
|---|---|---|
| V39I+S62D+L102F | 0.65 / 0.77 / 0.78 | 0.73 |
| V39I+S62K+S103A | 1.01 / 1.21 / 1.05 | 1.09 |
| K36R+V39M+P101C | 1.19 / 1.42 / 1.49 | 1.36 |
| K36P+V39M | 1.56 / 3.23 / 2.02 | 2.27 |
| V29L+Y31M+V39W | 2.53 / nd / nd | 2.53 |
| K24P+V39P+W56R | nd / 3.07 / nd | 3.07 |
| Q27A+S38A+V39W | 3.09 / nd / nd | 3.09 |
| E32K+S33K+V39L | 3.46 / nd / nd | 3.46 |
| S28Q+V29D+V39G | 3.48 / 3.75 / nd | 3.62 |
| N35V+V39W+T59C | nd / 3.69 / nd | 3.69 |
| E32G+V39D+A57V | nd / 3.79 / nd | 3.79 |
| Q27M+V39Q+L100V | nd / 3.74 / 3.95 | 3.84 |
| E32G+V39L+Y97S | nd / 3.89 / nd | 3.89 |
| V39D+W56C+S62E | 4.15 / 3.69 / nd | 3.92 |
| V29T+L30R+V39H | nd / 3.94 / nd | 3.94 |
| S25P+V39N | nd / 4.19 / nd | 4.19 |
| V39L | nd / nd / 4.42 | 4.42 |
| V39N+A57V+S103Y | nd / nd / 4.52 | 4.52 |
| N35R+V39D+S58V | 5.80 / 3.27 / 5.11 | 4.72 |
| V39T+R99H+L100A | nd / 4.51 / 4.94 | 4.73 |
| S33Q+V39Y+Y97M | 5.97 / nd / 3.52 | 4.75 |
| K24D+V39F+E61P | 4.57 / 5.16 / nd | 4.87 |
| S28W+V39T+L102W | 5.20 / 5.48 / 4.78 | 5.16 |
| Y31E+V39Y+P101D | 5.12 / 5.49 / nd | 5.31 |
| Q27R+V39R+A40F | nd / nd / nd | nd |
| S28F+V29K+V39L | nd / nd / nd | nd |
| S26P+V39C+Q96G | nd / nd / nd | nd |
| Q27R+V39H+P101W | nd / nd / nd | nd |
| V39S+E61V+Q96Y | nd / nd / nd | nd |
| V39Y+A57I+R99K | nd / nd / nd | nd |
| V29D+V39G+A40C | nd / nd / nd | nd |
| S38I+V39S+L100N | nd / nd / nd | nd |
| K36G+V39H+L100D | nd / nd / nd | nd |
| S25R+V39G+W56H | nd / nd / nd | nd |
| N37R+V39E+S58C | nd / nd / nd | nd |
| V39N+A40M+S62C | nd / nd / nd | nd |
| S25Y+V39H+S103I | nd / nd / nd | nd |
| K24I+V39Y+Y97T | nd / nd / nd | nd |
| R34W+V39H+Y97L | nd / nd / nd | nd |
| V39L+A57P | nd / nd / nd | nd |
| R34W+V39S+Y97P | nd / nd / nd | nd |
| K24N+V39G+H98F | nd / nd / nd | nd |

4 of these entries, quoted again:

| changes | replicates, log10 nM | log10 Kd (nM), mean |
|---|---|---|
| V39L | nd / nd / 4.42 | 4.42 |
| V39L+A57P | nd / nd / nd | nd |
| V39I+S62D+L102F | 0.65 / 0.77 / 0.78 | 0.73 |
| N35R+V39D+S58V | 5.80 / 3.27 / 5.11 | 4.72 |

Data: MIT Lincoln Laboratory AlphaSeq set, Engelhart et al. 2022, doi:10.1038/s41597-022-01779-4, as distributed in FLAb.